The numbers were not newly measured in patent publication US8188055B2, “Inactivators of O6-alkylguanine-DNA alkyltransferase” (The United States of America, as represented by the …, priority 2007, dated 2012), which cites them from elsewhere.

Where two headings read alike, the source gives them in different places.

The target in the series is T1, human alkyltransferase (Homo sapiens, UniProt P16455).
T1 sequence (P16455 1-207): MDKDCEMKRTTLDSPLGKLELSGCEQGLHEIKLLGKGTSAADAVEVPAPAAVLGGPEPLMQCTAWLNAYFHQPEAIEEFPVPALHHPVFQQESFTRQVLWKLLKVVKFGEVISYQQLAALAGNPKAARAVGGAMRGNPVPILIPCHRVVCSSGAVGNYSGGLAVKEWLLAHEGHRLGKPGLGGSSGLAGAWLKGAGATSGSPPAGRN
The note with it: previously published, read-out: ED50 for inactivation of alkyltransferase, cited from earlier work.

With `Nc1nc(OCc2ccccc2)c2nc[nH]c2n1` [O^6-benzylguanine], the EC50 (+DNA) was 0.1 µM and the EC50 (−DNA) is 0.3 µM.
